# Source: PMC3582710 (Chemico-biological interactions, 2012)
# The chains behind the UniProt entries cited, without tags or fusion partners. Residues count along the entry.
# UniProt P06276, 29-602: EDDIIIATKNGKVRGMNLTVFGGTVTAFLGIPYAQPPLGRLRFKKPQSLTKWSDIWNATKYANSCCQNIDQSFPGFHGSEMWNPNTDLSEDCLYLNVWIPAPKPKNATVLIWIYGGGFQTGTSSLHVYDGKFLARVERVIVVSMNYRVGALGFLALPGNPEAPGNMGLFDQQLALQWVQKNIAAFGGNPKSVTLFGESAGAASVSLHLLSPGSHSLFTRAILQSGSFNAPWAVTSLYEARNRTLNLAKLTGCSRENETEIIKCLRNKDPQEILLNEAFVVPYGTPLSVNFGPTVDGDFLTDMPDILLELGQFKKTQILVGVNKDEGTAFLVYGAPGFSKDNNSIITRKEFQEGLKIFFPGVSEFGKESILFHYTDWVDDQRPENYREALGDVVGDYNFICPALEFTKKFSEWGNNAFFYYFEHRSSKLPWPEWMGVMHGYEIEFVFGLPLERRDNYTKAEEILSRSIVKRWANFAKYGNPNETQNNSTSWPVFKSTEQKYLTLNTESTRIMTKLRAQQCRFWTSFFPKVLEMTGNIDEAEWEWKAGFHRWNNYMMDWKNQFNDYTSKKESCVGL
# Molecular target: BChE (Homo sapiens, UniProt P06276)
# Experiment: BChE inhibition, butyrylthiocholine substrate, Ellman's reagent
# Format: biochemical
smiles,measurement,value
"CCN(C)C(=O)Oc1cccc([C@H](C)N(C)C)c1 [Rivastigmine, rivastigmine]",IC50,280 ± 110 µM
